Experimental findings from ChEMBL document CHEMBL3853302, “Anti-inflammatory and Quinone Reductase Inducing Compounds from Fermented Noni (Morinda citrifolia) Juice Exudates” (J Nat Prod, 2016) are described below.

The chains behind the UniProt entries cited, without tags or fusion partners.
UniProt P15559, whole entry: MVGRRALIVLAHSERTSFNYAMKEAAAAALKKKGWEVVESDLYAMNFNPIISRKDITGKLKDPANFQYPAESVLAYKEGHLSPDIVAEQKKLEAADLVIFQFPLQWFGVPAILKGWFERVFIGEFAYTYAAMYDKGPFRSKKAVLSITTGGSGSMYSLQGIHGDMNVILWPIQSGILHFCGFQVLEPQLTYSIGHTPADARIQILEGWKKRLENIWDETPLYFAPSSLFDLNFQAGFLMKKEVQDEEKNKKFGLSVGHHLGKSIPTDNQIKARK

For this assay, the target named is NAD(P)H dehydrogenase [quinone] 1 (Homo sapiens) (UniProt P15559). Particulars: Hepa-1c1c7.

As to `O=c1cc(-c2ccc(Br)cc2)oc2ccccc12`, the CD was found to be 0.01 µM.
